Assays:
ASK-1 = ASK-1 autophosphorylation in neutrophils; format: cell-based, human
Protocol: GCKR was immunoprecipitated from cell lysates and activity assayed using myelin basic protein (MBP) as the substrate. […] Results shown are the means+−sem of 3 experiments; (c) Expression of ASK-1 in HEK293T cells and neutrophils as determined by Western blot analysis of cell lysates. […] Activation of ASK-1 was determined by kinase autophosphorylation. A representative digital radiogram from 3 experiments is shown.
KHS (hereon referred to as “GCKR”) activity was assayed as described previously using myelin basic protein as a substrate (Shi, C. S., Leonardi, A., Kyriakis, J., Siebenlist, U., and Kerhl, J. H. (1999) J. Immunol. 163: 3279-3285). ASK-1 activation was determined in immunoprecipitates of ASK-1 by autophosphorylation (Kyriakis, J. M., and Auruch, J. (2001) Physiol. Rev. 81: 807-869). p38 and ERK activities were determined as described using myelin basic protein as a substrate (Hii, C. S., Huang, Z. H., Bilney, A., Costabile, M., Murray, A. W., Rathjen, D. A., Der, C. J., and Ferrante, A. (1998) J. Biol. Chem. 273: 19277-19282). […] Phosphorylated ASK-1, myelin basic protein and GST-jun (1-79) were fractionated on 8, 16 and 12% SDS polyacrylamide gels, respectively, and the bands were detected and radioactivity determined using an Instant Imager (Packard Instruments, Canberra, Australia). […]

ERK = ERK activation in adherent neutrophils; format: cell-based, human; details: neutrophils pre-adhered to plasma-coated dishes; 15 min; TNF 1000 U/ml, TNF70-80 10 μM
Protocol: ERK activation was determined by assessing the level of ERK1/ERK2 dual phosphorylation (a) or by kinase activity assay (b) after immunoprecipitation. JNK activity was assayed as described under Experimental using GST-jun (1-79) as the substrate (c). (a) Immunoblot probed with anti-ACTIVE ERK antibody (top panel), stripped, and re-probed with anti-ERK2 antibody (bottom panel). (b) The data is presented as the means+−sem of 3 experiments. […] Significance of difference between control and stimulated cells: *p<0.05.
Neutrophils were prepared from peripheral blood of healthy donors by a rapid single-step technique (Kumaratilake, L. M., Rathjen, D. A., Mack, P., Widmer, F., Prasertsiriroj, V., and Ferrante, A. (1995) J. Clin. Invest. 95: 2315-2323) using Hypaque-Ficoll and according to the institution's guidelines on human ethics. The preparations of neutrophils were routinely of >99% viability and >98% purity. […]
Western blot analysis was conducted as described previously (Hii, C. S., Huang, Z. H., Bilney, A., Costabile, M., Murray, A. W., Rathjen, D. A., Der, C. J., and Ferrante, A. (1998) J. Biol. Chem. 273: 19277-19282). […] The amounts of dually phosphorylated ERK1 and ERK2, phospho-JNK and NFκB p65 subunit were detected using rabbit anti-active ERK, mouse anti-phospho JNK and rabbit anti-NFκB antibody, respectively. […]

With “TNF: Human recombinant TNF produced by Genentech, Inc.” the “ASK-1 phosphorylation in non-adherent neutrophils” value (ASK-1; data not shown) was “not altered”, the “ASK-1 phosphorylation in adherent neutrophils” value (ASK-1; plasma-coated dishes, 3 or 7 min) was “neither TNF nor TNF70-80 increased the level of ASK-1 phosphorylation” and the “ERK activation in adherent neutrophils” value (ERK) was “stimulated”.

From patent US8268635B2, “Methods of identifying agents that selectively activate p38 and/or NKkB signaling” (priority 2006, dated 2012)
